# In EP4420684A1, “DNA TOXIC DIMER COMPOUND AND CONJUGATE THEREOF” (Systimmune, Inc., priority 2022, dated 2023):
# Test system: N87 tumor cells
# Assay: In vitro activity test (MTS, 5 days), growth inhibition of N87 cells
# Type: cell-based
# Settings: 120 h
# Procedure: • Cells: derived from the Cell Bank of the Chinese Academy of Sciences; • Tumor cell culture medium: Gibco™; • Fetal Bovine Serum (FBS): BIOWEST™;
# • Growth medium (with 10% FBS, Penicillin/streptomycin (100 U/mL); • Assay medium (with 1% FBS, Penicillin/streptomycin (100 U/mL);
# The biosafety cabinet was turned on for UV light irradiation 30 min in advance, and subsequently ventilated for 3 minutes. The growth medium, assay medium, D-PBS and trypsin were preheated in a 37°C thermostatic water bath, after which the surface was sterilized with alcohol and placed in the biosafety cabinet. […]
# The MTS reagent was removed from the test samples after 5 days of action, thawed at room temperature and protected from light, vortexed and mixed thoroughly, and then 20 µL of Cell Titer One Solution Reagen MTS reagent was added along the side wall of the wells for every 100 µL of cell culture volume in a biosafety cabinet. […] After the end of the reaction, took out the 96-well plate, placed in the enzyme labeling instrument to detect the OD490 nm absorbance value, and performed the data recording, organization and storage.
smiles,measurement,value
COc1ccc(C2=CN3C(=O)c4cc(OC)c(OCC56CC(C(=O)N7C[C@@H](CCl)c8c7cc(O)c7cccc(C)c87)(C5)C6)cc4N=C[C@@H]3C2)cc1 [Compound A],IC50,0.82 nM
